Measured values from patent US20240189408A1, “COMPOSITIONS AND METHODS FOR REDUCING METHANE EMISSIONS IN RUMINANT POPULATIONS” (Arkea Bio Corp., priority 2022, published 2024).

Test: Adsorbent study: binding affinity and adsorptive capacity for 3-NOP, HPLC at 230 nm
Details: 0.2 g of adsorbent in 10 mL of 1% 3-NOP/H2O, after 24h; control 8.258 mM

Iron Phosphate
3-NOP concentration: 7.503 mM
